# Ab-91 heavy chain CDR variants: yeast mating affinities

From the AlphaSeq antibody data of Engelhart et al. 2022 (doi:10.1038/s41597-022-01779-4), copy in the FLAb collection.

All variants were tested on one target, the spike HR2 peptide PDVDLGDISGINAS (SARS-CoV-2).

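The parent was found by panning a naive human phage display library on the peptide. The library (AAYL51) carries one to three amino acid substitutions per variant, with no insertions or deletions. AlphaSeq pools MATa yeast showing the antibodies with MATalpha yeast showing the peptide. The frequency of each diploid, read from paired DNA barcodes, reflects how well the two displayed proteins bind. Scores were corrected for input abundance and mapped to Kd with protein pairs of known affinity run in the same pool. There are three technical replicates.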

Each scFv is VL, the linker GGGGSGGGGSGGGGS, VH, as in the parent Ab-91, and differs from it in the CDRs of the heavy chain only.
VL: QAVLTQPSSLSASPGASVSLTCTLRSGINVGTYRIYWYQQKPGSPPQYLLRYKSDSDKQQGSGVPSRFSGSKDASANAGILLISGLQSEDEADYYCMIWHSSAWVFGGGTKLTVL
VH: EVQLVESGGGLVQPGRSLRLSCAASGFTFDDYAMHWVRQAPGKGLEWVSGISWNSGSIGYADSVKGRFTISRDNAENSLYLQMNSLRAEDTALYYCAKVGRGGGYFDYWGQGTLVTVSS

Positions count from residue 1 of the parent VH; V64W puts W in place of V. Affinities are written as log10 Kd with Kd in nM; a lower number is a better binder. An entry "n.d." has no value in the source: the pair was not observed among the diploids in that replicate. This suggests poor binding but is not conclusive.

| # | changes | log10 Kd, replicates | empty controls |
|---|---|---|---|
| 1 | V64W/G100Y/Y105C | n.d. n.d. n.d. | 1/9 (5.35) |
| 2 | G50L/R101F/F106W | n.d. n.d. n.d. | 0/9 |
| 3 | F27C/F29W/D107I | 4.61 n.d. n.d. | 1/9 (5.75) |
| 4 | I51H/G59N/G103C | n.d. 6.38 n.d. | 1/9 (5.27) |
| 5 | D30S/M34I/S57G | 2.28 3.01 2.86 | 1/9 (5.11) |
| 6 | M34D/G59N/G103Q | n.d. 4.57 n.d. | 2/9 (4.68) |
| 7 | S63W/G103W/D107N | 4.78 n.d. n.d. | 4/9 (4.43) |
| 8 | F29H/Y32Q/A33M | n.d. 3.66 n.d. | 0/9 |
| 9 | G56S/D62S/Y108K | n.d. n.d. 1.29 | 0/9 |
| 10 | H35R/S57D/D62Q | n.d. n.d. n.d. | 0/9 |
| 11 | F29S/S52H/N54I | n.d. 5.33 n.d. | 2/9 (4.83) |
| 12 | G26V/M34P/Y105C | n.d. 6.30 5.16 | 4/9 (4.49) |
| 13 | S52F/I58P/A61W | n.d. 4.90 n.d. | 4/9 (5.22) |
| 14 | H35Y/V99G/Y105F | n.d. n.d. n.d. | 0/9 |
| 15 | D31F/W53H/D107C | 0.90 0.70 -0.09 | 1/9 (4.12) |
| 16 | G26L/D62H/Y105R | n.d. 5.05 n.d. | 2/9 (4.86) |
| 17 | F29V/G50H/S55N | n.d. n.d. n.d. | 0/9 |
| 18 | T28K/H35K/A61N | n.d. n.d. n.d. | 0/9 |
| 19 | F27K/D31Y/V64S | n.d. n.d. n.d. | 0/9 |
| 20 | D30W/M34Q/I58C | n.d. 4.93 n.d. | 1/9 (4.42) |
| 21 | M34E/I58N/Y60A | n.d. n.d. n.d. | 1/9 (4.24) |
| 22 | F29Q/D30M/G103D | n.d. n.d. n.d. | 2/9 (3.19) |
| 23 | G50N/G56A/S63H | 4.56 6.16 n.d. | 4/9 (4.73) |
| 24 | Y32P/G59V/V64Y | n.d. 4.64 n.d. | 4/9 (4.19) |
| 25 | A61N/S63I/G102T | n.d. 4.90 n.d. | 0/9 |
| 26 | A33K/M34F/G103R | 4.44 5.72 n.d. | 2/9 (3.88) |
| 27 | W53I/S57T/G102M | n.d. n.d. n.d. | 2/9 (4.60) |
| 28 | I51D/S55P/S63K | n.d. n.d. n.d. | 2/9 (4.86) |
| 29 | F27K/T28D/Y108R | n.d. n.d. n.d. | 0/9 |
| 30 | F27N/G50A/G56I | n.d. n.d. n.d. | 1/9 (4.70) |
| 31 | S52A/D62L/D107P | n.d. n.d. n.d. | 3/9 (4.06) |
| 32 | H35K/D62L/R101M | n.d. n.d. n.d. | 3/9 (3.38) |
| 33 | A33V/Y60H/V99F | n.d. n.d. n.d. | 1/9 (4.19) |
| 34 | G50Y/A61D/Y108D | n.d. n.d. n.d. | 0/9 |
| 35 | D31C/G56T/G59Q | n.d. 5.55 n.d. | 3/9 (4.96) |
| 36 | V99T/F106T | 5.83 n.d. n.d. | 2/9 (5.05) |
| 37 | S52L/K65F/D107R | 4.79 n.d. n.d. | 2/9 (4.07) |
| 38 | V64E | 5.08 n.d. 4.76 | 7/9 (5.21) |
| 39 | R101L/G102V/G103T | 6.11 n.d. n.d. | 6/9 (4.79) |
| 40 | G26T/M34H/G104Y | n.d. n.d. n.d. | 0/9 |
| 41 | D31F/Y32P/M34Q | n.d. 5.44 n.d. | 1/9 (3.62) |
| 42 | H35T/Y60H/G100V | 4.31 n.d. n.d. | 0/9 |
| 43 | I51Q/S52I/G103C | 4.79 n.d. 4.72 | 2/9 (4.12) |
| 44 | S52E/N54F/S57D | n.d. 4.30 n.d. | 1/9 (3.86) |
| 45 | A33W/S63F | n.d. n.d. 4.42 | 2/9 (3.83) |
| 46 | F29D/H35I/S63M | 3.70 n.d. n.d. | 5/9 (4.32) |
| 47 | K65Q/Y105I | 3.67 3.64 3.32 | 9/9 (5.22) |
| 48 | W53F | 0.66 0.66 -0.10 | 4/9 (4.81) |
| 49 | S57R/S63Y/G100W | n.d. n.d. n.d. | 1/9 (5.12) |
| 50 | T28P/D31I/K65D | 2.56 2.67 2.75 | 4/9 (4.89) |

Top 4 of the variants detected in all replicates, tightest first:

changes,"log10 Kd, replicates",empty controls
W53F,0.66 0.66 -0.10,4/9 (4.81)
D31F/W53H/D107C,0.90 0.70 -0.09,1/9 (4.12)
T28P/D31I/K65D,2.56 2.67 2.75,4/9 (4.89)
D30S/M34I/S57G,2.28 3.01 2.86,1/9 (5.11)

In this assay the parent's reference entry averaged 1.86; its copy inside this library read 0.88. As a blank, each scFv also met three strains without target: over library AAYL51, 21% of these pairings were detected, typically at 4.54 and seldom below 3.26. The control count says in how many pairings with the empty strains this scFv gave a signal, with their mean in brackets.